Screening data (PubChem BioAssay)
PglD DTNB = inhibitors of Campylobacter jejuni PglD acetyltransferase; purified PglD enzyme, DTNB colorimetric CoA detection; AID 602405; inhibition, % at 12.5 µM; actives 0.098% (n = 360,000); in the data active = inhibition above about 16%, passing the limit was not always enough
UUG fidelity = alters start codon recognition fidelity in yeast | S. cerevisiae UUG-firefly luciferase reporter, luminescence/redox ratio | activity score, % at 18.7 µM | hit rate 0.13% among 350,000 | AID 602363;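 active means replicate mean at a twofold rise or more, about +100% in these data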;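 further: firefly luciferase made from a UUG start codon reports start codon fidelity; reporter light over untreated wells divided by growth signal over untreated wells; some hits fall short of that in this replicate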
PDI inh = inhibitors of human protein disulfide isomerase; actives 0.052% (n = 350,000); P07237; PDI insulin aggregation turbidity, A650, 90 min; inhibition, % at 10 µM; AID 588391;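 active = mean inhibition across replicates of 30% or more, whatever share of single replicates reach that level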
FGF22 binding = FGF22 (human) thermal shift binding; AID 651658; Q9HCT0; activity (Tm shift, normalised), % at 9.99 µM; actives 1.5% (n = 340,000); recombinant FGF22 thermal shift, SYPRO orange fluorescence; percent of sucrose octasulfate shift, DMSO zero;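 active = mean Tm shift, scaled 0 neutral to 100 positive control, at about 1.3% or above, every replicate too, limit read from the data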
ERp5 block = ERp5 (human) disulfide isomerase inhibition. ERp5 insulin aggregation, absorbance 650 nm, 90 min. inhibition, % at 9.99 µM. Q15084. AID 651711. actives 0.05% (n = 350,000);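 active = mean replicate inhibition above about 25%, with every replicate also reaching it, limit read from the data, passing the limit was not always enough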
ARNT TACC3 PPI = disruptors of human ARNT/TACC3 interaction. AlphaScreen His-ARNT PAS-B/GST-TACC3 binding, luminescence; TACC3 fragment carries E629A point mutation. actives 0.66% (n = 390,000). Q9Y6A5. AID 623870. inhibition, % at 9.99 µM;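 active = mean inhibition of replicates at least 50% and at least half of replicates each reaching 50%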;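 also: 0% = complete ARNT plus TACC3 wells and 100% = ARNT alone without TACC3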
Active calls of the source: *; nt = no result. Most compounds without a hit are left out; they make up all but 1.9% or so of the library.

1	CC(C)NC(=O)N(C)C[C@H]1Oc2ccc(N(C)C)cc2CC(=O)N([C@@H](C)CO)C[C@H]1C
2	CSc1cccc(NC(=O)CCNC(=O)c2ccco2)c1
3	O=C(CCNC(=O)c1ccco1)Nc1cccc(Br)c1
4	CCCCCCn1c(=O)n2n(c1=O)C[C@]1(OC(=O)Nc3c(C)noc3C)CN(S(=O)(=O)c3ccc(C)cc3)C[C@]1(O)C2
5	CCCN(CCC)S(=O)(=O)c1ccc(C(=O)NCc2ccco2)cc1
Assay by compound | 1 | 2 | 3 | 4 | 5
PglD DTNB | 4.0 | nt | nt | -2.2 | -0.5
UUG fidelity | nt | nt | nt | -10.8 | -29.7
PDI inh | nt | 0.9 | 4.2 | 1.7 | 3.6
FGF22 binding | -0.5 | 43.2* | 0.2 | 43.1* | 0.0
ERp5 block | -5.3 | 2.7 | 0.0 | 2.5 | 0.8
ARNT TACC3 PPI | 14.1 | -2.2 | -20.1 | nt | -3.3

6	CN(C)S(=O)(=O)c1ccc(C(=O)NCc2ccco2)cc1
7	CN(C)C(CNC(=O)c1ccc(S(=O)(=O)N(C)C)cc1)Cc1ccccc1 (stereo not given)
8	COc1ccc(OC2C(=O)N(c3ccc(C)c(C)c3)C2c2ccc(OC)c(OC)c2)cc1 (stereo not given)
9	CC(NC1=CC(=O)c2cccnc2C1=O)C(O)c1ccccc1 (stereo not given)
10	COc1ccc(S(=O)(=O)NC[C@H]2CC[C@H]3[C@H](CN3Cc3cc(F)ccc3F)O2)cc1
Assay by compound | 6 | 7 | 8 | 9 | 10
PglD DTNB | nt | nt | nt | nt | nt
UUG fidelity | nt | nt | 2.5 | nt | nt
PDI inh | -1.9 | -1.1 | -4.4 | -5.9 | nt
FGF22 binding | 43.9* | 43.3* | 43.5* | -1.2 | nt
ERp5 block | -2.0 | -4.9 | 0.7 | -7.0 | 8.2
ARNT TACC3 PPI | 1.4 | 13.3 | -2.2 | 47.4* | nt

11	CC(C)NC(=O)N(C)C[C@@H]1Oc2cc(C#CC3CC3)ccc2S(=O)(=O)N([C@@H](C)CO)C[C@@H]1C
12	Cc1ccc(NC(=S)NNC(=O)c2nnn(-c3ccccc3)c2C)cc1
13	COc1cc(N2CCCC2)ccc1C=O
14	CC1(CC(=O)N/N=C/c2cc(Br)c(O)cc2O)OCCO1
15	Cc1oc(/C=N/NC(=O)CC2(C)OCCO2)cc1Br
Assay by compound | 11 | 12 | 13 | 14 | 15
PglD DTNB | 4.0 | nt | nt | -0.9 | -2.4
UUG fidelity | 12.4 | nt | nt | 37.4 | 1.0
PDI inh | nt | -8.4 | -7.4 | -1.0 | 1.0
FGF22 binding | -0.2 | 0.3 | 44.1* | nt | -0.3
ERp5 block | 3.5 | 0.0 | -1.3 | nt | -2.7
ARNT TACC3 PPI | 7.1 | 59.0* | 2.5 | 75.2* | -1.6

16	C[C@H]1CN([C@@H](C)CO)C(=O)c2cccc(NC(=O)Nc3ccc(C(F)(F)F)cc3)c2O[C@H]1CN(C)S(C)(=O)=O
17	O=C(O)CNC(=O)c1ccccc1Br
18	O=C(CNC(=O)c1ccncc1)N/N=C/c1cc(Br)ccc1O
19	O=C(CNC(=O)c1ccccc1)N/N=C/c1cc(Br)ccc1O
20	O=C(CNC(=O)c1ccccc1Br)N/N=C/c1ccccc1O
Assay by compound | 16 | 17 | 18 | 19 | 20
PglD DTNB | -5.6 | nt | nt | 4.5 | nt
UUG fidelity | 15.1 | nt | nt | -11.4 | nt
PDI inh | nt | -1.6 | -4.1 | -0.7 | -2.7
FGF22 binding | -0.4 | 43.0* | nt | -0.3 | 43.5*
ERp5 block | 0.2 | 4.7 | nt | 3.5 | -6.9
ARNT TACC3 PPI | 4.5 | -2.5 | 46.4* | -1.5 | 2.1

21	O=C(CNC(=O)c1cccc(Br)c1)N/N=C/c1cn[nH]c1-c1ccccc1
22	O=C(CNC(=O)c1cccc(Br)c1)N/N=C/c1ccc[nH]1
23	O=C(CNC(=O)c1ccccc1Br)N/N=C\c1cc([N+](=O)[O-])cc(Br)c1O
24	COc1cccc(CN2CCC3(CC2)CN(C(=O)C2CC2)[C@H](CO)c2c3c3ccc(OC)cc3n2C)c1
25	COc1cccc(/C=N/NC(=O)C(c2ccncc2)N2CCOCC2)c1 (stereo not given)
Assay by compound | 21 | 22 | 23 | 24 | 25
PglD DTNB | nt | nt | 4.2 | nt | -2.3
UUG fidelity | nt | nt | -0.1 | nt | -4.5
PDI inh | 1.3 | -6.5 | 9.9 | nt | 2.7
FGF22 binding | 0.1 | 43.1* | nt | 0.1 | -0.2
ERp5 block | 23.9 | 0.6 | 5.2 | 3.3 | 5.8
ARNT TACC3 PPI | 6.7 | -0.1 | 40.8 | nt | nt

ARNT TACC3 PPI, hit marks shown above.
cpd	smiles	PglD DTNB	UUG fidelity	PDI inh	ERp5 block	ARNT TACC3 PPI
9	CC(NC1=CC(=O)c2cccnc2C1=O)C(O)c1ccccc1 (stereo not given)	nt	nt	-5.9	-7.0	47.4*
12	Cc1ccc(NC(=S)NNC(=O)c2nnn(-c3ccccc3)c2C)cc1	nt	nt	-8.4	0.0	59.0*
14	CC1(CC(=O)N/N=C/c2cc(Br)c(O)cc2O)OCCO1	-0.9	37.4	-1.0	nt	75.2*
18	O=C(CNC(=O)c1ccncc1)N/N=C/c1cc(Br)ccc1O	nt	nt	-4.1	nt	46.4*

Further structures follow.
26	O=C(CN1CC(c2ccccc2)CC1=O)N/N=C/c1cc(Br)ccc1O (stereo not given)
27	O=C(CNC(=O)c1ccccc1Br)N/N=C/c1cc(Br)ccc1O
28	O=C(N/N=C/c1cc(Br)ccc1O)C(c1ccncc1)N1CCOCC1 (stereo not given)
29	O=C(CNC(=O)c1ccco1)N/N=C/c1cc(Br)ccc1O
30	C[C@H](CO)N1C[C@H](C)[C@@H](CN(C)S(=O)(=O)c2cccs2)Oc2ccc(NC(=O)CCCCCC(=O)Nc3ccccc3N)cc2C1=O
Assay by compound | 26 | 27 | 28 | 29 | 30
PglD DTNB | nt | -4.3 | 2.6 | 8.1 | 2.4
UUG fidelity | nt | -11.3 | -31.3 | -18.8 | -2.7
PDI inh | -4.5 | 4.6 | -1.1 | 0.3 | nt
FGF22 binding | 0.3 | 43.8* | nt | -0.1 | -0.2
ERp5 block | -3.3 | 3.5 | nt | 1.9 | -1.2
ARNT TACC3 PPI | 48.3* | nt | 58.3* | 28.8 | -3.7

31	Cc1ccc(S(=O)(=O)N(C)C[C@@H]2Oc3ccc(NC(=O)Nc4ccccc4)cc3C(=O)N([C@@H](C)CO)C[C@@H]2C)cc1
32	CCCCOC(=O)C1CN(c2ccccc2)N=C1C(C)=O (stereo not given)
33	CCCCOC(=O)C1CN(c2ccccc2)N=C1C(=O)OCC (stereo not given)
34	CNC[C@@H]1Oc2ncc(C#CC3CCCCC3)cc2C(=O)N([C@H](C)CO)C[C@@H]1C
35	COc1cc(C=O)ccc1OS(=O)(=O)c1ccc(NC(C)=O)cc1
Assay by compound | 31 | 32 | 33 | 34 | 35
PglD DTNB | -1.0 | nt | nt | 1.3 | -2.9
UUG fidelity | 7.9 | nt | nt | 2.1 | -12.7
PDI inh | nt | 2.6 | 1.6 | nt | 3.1
FGF22 binding | -0.2 | 43.2* | nt | -0.2 | 1.9*
ERp5 block | -2.9 | -2.8 | nt | -4.0 | -0.8
ARNT TACC3 PPI | -7.4 | 1.0 | nt | nt | -4.7

36	C[C@@H]1CN([C@@H](C)CO)C(=O)Cc2cc(NC(=O)Cc3cn(C)c4ccccc34)ccc2O[C@H]1CN(C)C(=O)Nc1cccc2ccccc12
37	O=C(O)CCCCCNS(=O)(=O)/C=C/c1ccccc1
38	O=C(O)CCCCCNS(=O)(=O)c1cccc2c1C(=O)c1ccccc1C2=O
39	Cc1nc2c(=O)[nH]c(=S)[nH]c2[nH]c1=O
40	C[C@H](CO)N1C[C@H](C)[C@@H](CN(C)C(=O)Nc2cccc3ccccc23)OCCCC[C@H](C)Oc2ccc(NC(=O)c3ccncc3)cc2C1=O
Assay by compound | 36 | 37 | 38 | 39 | 40
PglD DTNB | 1.9 | nt | nt | 7.4 | 2.9
UUG fidelity | -5.1 | nt | nt | 7.3 | 5.4
PDI inh | nt | -8.6 | 4.9 | -2.3 | nt
FGF22 binding | -0.1 | 0.6 | 0.1 | 0.0 | -0.3
ERp5 block | -2.7 | -2.6 | -1.9 | -1.9 | 0.9
ARNT TACC3 PPI | 1.0 | -4.3 | 57.7* | 34.7* | 8.2

41	CCOC(=O)C1(C)/C(=N/Nc2ccccc2OC)C(=O)C(=O)N1c1ccccc1 (stereo not given)
42	CC(=O)NS(=O)(=O)c1ccc(NC(=O)c2ccc(-n3nc(C)cc3C)cc2)cc1
43	Cc1cc(C)n(-c2ccc(C(=O)Nc3cccnc3Cl)cc2)n1
44	Cc1cc(C)n(-c2ccc(C(=O)Nc3ccc4c(c3)OCCO4)cc2)n1
45	C[C@@H]1CCCCO[C@H](CN(C)Cc2ccccc2)[C@@H](C)CN([C@H](C)CO)C(=O)c2cc(N(C)C)ccc2O1
Assay by compound | 41 | 42 | 43 | 44 | 45
PglD DTNB | nt | 2.7 | nt | -7.5 | nt
UUG fidelity | nt | 2.4 | nt | -8.9 | -16.9
PDI inh | -2.8 | 7.1 | -6.0 | 2.5 | nt
FGF22 binding | 43.0* | 43.1* | 43.1* | nt | nt
ERp5 block | -1.3 | -91.1 | -7.4 | nt | nt
ARNT TACC3 PPI | 5.3 | -0.6 | 2.5 | -1.4 | nt

46	CN(NS(=O)(=O)c1ccc(Cl)cc1)c1nc(C(F)(F)F)nc2ccccc12
47	CN(NS(=O)(=O)c1ccccc1)c1nc2ccccc2nc1C(F)(F)F
48	Oc1ccc(N=Nc2ccccc2-c2nn[nH]n2)c(O)c1
49	Cc1ccccc1-c1nn[nH]n1
Assay by compound | 46 | 47 | 48 | 49
PglD DTNB | nt | -4.4 | -5.0 | -3.0
UUG fidelity | nt | -11.0 | -9.6 | -10.3
PDI inh | -0.4 | 1.6 | 2.0 | 2.3
FGF22 binding | 44.1* | nt | 0.3 | nt
ERp5 block | 1.2 | nt | 2.4 | nt
ARNT TACC3 PPI | nt | -5.4 | 67.5* | -8.0
